Values of other authors in US10988812B2, “Fusion genes associated with progressive prostate cancer” (UNIVERSITY OF PITTSBURGH - OF THE COMMONWEALTH SYSTEM OF …, priority 2013, dated 2021).

System: non-small cell lung cancer positive for EML4-ALK
Details: in most patients; cited from earlier work

C[C@@H](Oc1cc(-c2cnn(C3CCNCC3)c2)cnc1N)c1c(Cl)ccc(F)c1Cl [Crisotinib]
shrinkage of tumor mass: at least 30%
